Assay outcomes from PubChem BioAssay.
In the library only some 2.1% were active in any assay of this set; here they are far more common.
MITF TRPM1 inh: inhibitors of MITF-driven TRPM1 promoter in melanoma cells | SK-MEL-5 TRPM1 promoter luciferase, 24 h | inhibition, % at 12.5 µM | 330,000 tested, 0.83% active;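 active = mean inhibition across replicates of 60% or more, whatever share of single replicates reaches that level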
miR-122 sensor: miR-122 inhibition in Huh7 cells; activation (reporter increase), % at 12.5 µM; 340,000 tested, 0.3% active; Huh7 miR-122 Renilla luciferase sensor, 48 h; neutral wells = 0, positive control = 100;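 active = mean replicate activation score at least 90 and every replicate individually at or above 90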;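 note: higher luciferase means less miR-122 activity so hits act as miR-122 inhibitors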
MITF act: MITF TRPM1 promoter activation in melanoma cells; SK-MEL-5 TRPM1-promoter luciferase, 24 h; % of positive control, neutral wells = 0; activation, % at 12.5 µM; 300,000 tested, 0.75% active;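 active = mean activation of at least 80% with every replicate also reaching 80%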;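 note: 0% = neutral control wells and 100% = parthenolide positive control wells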
Wnt bcat act: activators of Wnt/beta-catenin signaling; Wnt/beta-catenin reporter cell assay, activator, plate reader; activation, % at 9.35 µM; 300,000 tested, 1.2% active; in the data active = activation above about 30%, passing the limit was not always enough;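 note: 0% = neutral control wells and 100% = positive control wells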
PGC1a acetyl inh: modulators of PGC1a acetylation. U2OS PGC1a acetylation, AlphaScreen anti-acetyl-lysine; with virally co-expressed GCN5 acetyltransferase. inhibition, % at 15.6 µM. 350,000 tested, 0.17% active. AID 651687;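 active = every replicate shows inhibition of at least 40%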;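 note: 0% = neutral control wells and 100% = positive control wells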
Yeast UUG start: modulators of yeast start codon fidelity, primary screen, whole organism, S. cerevisiae, single point, plate reader | AID 602363, 2012 | actives 0.13% (n = 350,000) | activity score, % at 18.7 µM | S. cerevisiae UUG-firefly luciferase reporter, luminescence/redox ratio;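 active means replicate mean at a twofold rise or more, about +100% in these data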;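 further: firefly luciferase made from a UUG start codon reports start codon fidelity; reporter light over untreated wells divided by growth signal over untreated wells; some hits fall short of that in this replicate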
Active calls of the source: *; [ ] = remark or other dose.

Results for COc1cc(OC)cc(C(=O)O/N=C(\N)c2ccccn2)c1 ?
miR-122 sensor: 9.8; Wnt bcat act: 52.4*; PGC1a acetyl inh: 10.5; Yeast UUG start: -33.2

Results for CC(Oc1cccc(Br)c1)C(=O)NNC(=O)c1ccccn1 (stereo not given) ?
MITF TRPM1 inh: 82.5*; miR-122 sensor: 9.5; MITF act: -80.8; PGC1a acetyl inh: 13.1; Yeast UUG start: -48.5

Results for COc1ccc(C(=O)O/N=C(\N)c2ccccn2)cc1 ?
MITF TRPM1 inh: 80.5*; miR-122 sensor: 24.7; MITF act: -79.6; Wnt bcat act: -0.3; PGC1a acetyl inh: -12.0; Yeast UUG start: -94.5

Results for C[C@@H]1CN([C@H](C)CO)C(=O)c2cccc(NC(=O)c3ccncc3)c2O[C@H]1CN(C)C(=O)Nc1ccc2c(c1)OCO2 ?
miR-122 sensor: -7.0[16.7 µM]; PGC1a acetyl inh: -2.6; Yeast UUG start: -16.4

How did CNC[C@@H]1Oc2cc(-c3cncnc3)ccc2S(=O)(=O)N([C@@H](C)CO)C[C@H]1C do in these assays?
miR-122 sensor: 1.0[16.7 µM]; PGC1a acetyl inh: 2.1; Yeast UUG start: 6.5

How did CC=Cc1ccc2n(c1=O)C[C@H]1[C@H](CO)[C@@H](C(=O)Nc3ccccc3)[C@@H]2N1C(=O)CC1CC1 (mixture of isomers) do in these assays?
miR-122 sensor: 2.6[16.7 µM]; PGC1a acetyl inh: -1.8

What do the screens show for `O=C(N[C@H]1CC[C@H](CC(=O)N2CCc3ccccc3C2)O[C@H]1CO)C1CCC1`?
PGC1a acetyl inh: 2.1; Yeast UUG start: -12.8

Results for CN(C)C=Nc1ccc2nc3c(cc2c1)[nH]c1ccccc13 ?
MITF TRPM1 inh: -57.5; MITF act: 68.1; Wnt bcat act: 39.1*

What do the screens show for `CCOC(=O)c1[nH]c2ccccc2c1N=CN(C)C`?
MITF TRPM1 inh: 10.7; miR-122 sensor: -2.2; MITF act: -9.3; PGC1a acetyl inh: -0.2

Results for Cc1nnc(-c2ccccc2)c(=O)n1/N=C/c1c(O)ccc2ccccc12 ?
MITF TRPM1 inh: 27.7; miR-122 sensor: 12.9; MITF act: -25.4; PGC1a acetyl inh: 64.5*

How did O=C(C[C@H]1CC[C@@H]2[C@H](COC[C@@H](O)CN2S(=O)(=O)c2ccc(Cl)cc2)O1)NCc1ccncn1 do in these assays?
miR-122 sensor: 1.8[16.7 µM]; PGC1a acetyl inh: -20.8

How did CCOc1ccc(C=NNc2ccc(S(=O)(=O)Nc3ccccc3C(=O)O)cc2[N+](=O)[O-])cc1 do in these assays?
MITF TRPM1 inh: 8.3; miR-122 sensor: -3.6; MITF act: -8.0; Wnt bcat act: 37.2*; PGC1a acetyl inh: -0.4; Yeast UUG start: -9.1

How did CN(C)S(=O)(=O)c1ccc(NS(=O)(=O)/C=C/c2ccccc2)cc1 do in these assays?
MITF TRPM1 inh: 2.7; miR-122 sensor: 165.1*; PGC1a acetyl inh: 0.5; Yeast UUG start: -18.3

What do the screens show for `Cc1c(-c2ccc(Br)cc2)[n+](=O)c2c(n1[O-])CCCCC2`?
MITF TRPM1 inh: 3.0; miR-122 sensor: -8.5; Wnt bcat act: 36.5*; PGC1a acetyl inh: 6.6; Yeast UUG start: 5.4

Results for Cc1ccc(-c2c(C)n([O-])c3c([n+]2=O)CCCC3)cc1 ?
MITF TRPM1 inh: -5.4; MITF act: 7.0; Wnt bcat act: 3.6

Results for CCOc1ccc2nc(N3CCOCC3)nc(C)c2c1 ?
MITF TRPM1 inh: -94.8; miR-122 sensor: 0.5; MITF act: 98.8*; PGC1a acetyl inh: 1.5; Yeast UUG start: -17.1

How did O=C(Cc1ccccn1)NCC[C@@H]1CC[C@H](NC(=O)Nc2ccc(Cl)cc2)[C@H](CO)O1 do in these assays?
PGC1a acetyl inh: -1.9

How did C[C@H]1CN([C@@H](C)CO)S(=O)(=O)c2ccc(-c3cccc(F)c3)cc2O[C@H]1CN(C)S(C)(=O)=O do in these assays?
miR-122 sensor: -4.7[16.7 µM]; PGC1a acetyl inh: -0.1; Yeast UUG start: 0.5

How did CCCN=Cc1sc2ccc(OCC)cc2c1O do in these assays?
MITF TRPM1 inh: -101.9; MITF act: 100.5*; Wnt bcat act: 26.5; PGC1a acetyl inh: 8.1; Yeast UUG start: -13.1

What do the screens show for `C/C(=N/NC(=O)C(O)(c1ccccc1)c1ccccc1)c1ccc([N+](=O)[O-])o1`?
MITF TRPM1 inh: 64.7*; MITF act: -61.9; Wnt bcat act: -0.7; PGC1a acetyl inh: -15.9

What do the screens show for `COc1cccc(S(=O)(=O)N(C)C[C@@H]2Oc3ncc(C#Cc4ccc(C(F)(F)F)cc4)cc3C(=O)N([C@H](C)CO)C[C@@H]2C)c1`?
miR-122 sensor: -23.8[16.7 µM]; PGC1a acetyl inh: -29.7; Yeast UUG start: -7.5

Results for COc1ccc(C#Cc2cnc3c(c2)C(=O)N([C@@H](C)CO)C[C@@H](C)[C@H](CN(C)C(=O)Nc2cccc(OC)c2)O3)cc1 ?
miR-122 sensor: -5.9[16.7 µM]; PGC1a acetyl inh: -1.1; Yeast UUG start: -3.3

What do the screens show for `O=C(Nc1ccc(CN2CCOCC2)cc1)c1ccccc1F`?
MITF TRPM1 inh: -41.1; miR-122 sensor: 3.6; Wnt bcat act: 39.2*; Yeast UUG start: -13.9

Results for O=C(Nc1ccc(CN2CCOCC2)cc1)c1ccc(Cl)cc1Cl ?
MITF TRPM1 inh: -12.5; miR-122 sensor: -9.1; MITF act: 15.4; Wnt bcat act: 1.1; PGC1a acetyl inh: -2.8; Yeast UUG start: 0.1

Quoted from the listing, three compounds:
Results for COc1cc(OC)cc(C(=O)O/N=C(\N)c2ccccn2)c1 ?
miR-122 sensor: 9.8; Wnt bcat act: 52.4*; PGC1a acetyl inh: 10.5; Yeast UUG start: -33.2

Results for CC(Oc1cccc(Br)c1)C(=O)NNC(=O)c1ccccn1 (stereo not given) ?
MITF TRPM1 inh: 82.5*; miR-122 sensor: 9.5; MITF act: -80.8; PGC1a acetyl inh: 13.1; Yeast UUG start: -48.5

Results for COc1ccc(C(=O)O/N=C(\N)c2ccccn2)cc1 ?
MITF TRPM1 inh: 80.5*; miR-122 sensor: 24.7; MITF act: -79.6; Wnt bcat act: -0.3; PGC1a acetyl inh: -12.0; Yeast UUG start: -94.5

Carrying on.
How did O=C(Nc1ccc(CN2CCOCC2)cc1)c1cc2ccccc2o1 do in these assays?
MITF TRPM1 inh: -96.9; miR-122 sensor: -4.5; MITF act: 105.4*; Yeast UUG start: -6.3

How did O=C(NCCc1ccccc1)C(c1cccs1)N(C(=O)CCl)c1ccc(Cl)cc1 (stereo not given) do in these assays?
MITF TRPM1 inh: 85.9*; MITF act: -85.6

What do the screens show for `CCCNC(=O)N1[C@H](CO)[C@H](c2ccccc2)[C@H]1CNC(=O)c1ccc(F)cc1`?
miR-122 sensor: -14.3[16.7 µM]; PGC1a acetyl inh: -5.7; Yeast UUG start: 3.9

What do the screens show for `Cc1ccc(NC(=O)CCC(=O)c2cccs2)c(Br)c1`?
MITF TRPM1 inh: -83.2; miR-122 sensor: -3.9; MITF act: 86.2*; Wnt bcat act: 23.1; PGC1a acetyl inh: 0.7; Yeast UUG start: -22.2

Results for Cc1ccc(NC(=O)CCC(=O)c2cccs2)cc1 ?
MITF TRPM1 inh: -27.9; miR-122 sensor: -8.1; Wnt bcat act: 40.9*; Yeast UUG start: -18.9

Results for Cc1ccc(NCCC(=O)c2cccs2)cc1C ?
MITF TRPM1 inh: -103.0; miR-122 sensor: 1.9; MITF act: 106.1*; Wnt bcat act: -0.7; PGC1a acetyl inh: -0.8; Yeast UUG start: -15.2

Results for CN(C)C(=O)c1cccc(-c2ccc([C@@H]3[C@@H](CO)N4CCCCN(CCC(F)(F)F)C[C@H]34)cc2)c1 ?
miR-122 sensor: 36.9[16.7 µM]; PGC1a acetyl inh: -2.6; Yeast UUG start: 23.4

What do the screens show for `COc1ccc(CN(Cc2cccn2C)S(=O)(=O)c2ccccc2)cc1`?
MITF TRPM1 inh: 5.1; MITF act: -5.2; Wnt bcat act: -0.6; PGC1a acetyl inh: 74.3*
